In PubChem BioAssay (NCATS):
This is a selection; strong and weak results do not stand in their true shares. Results filed as inconclusive are left out. Active and inactive are the calls of the source. Unless noted, the call rests on the fitted dose curve; in most records, active means well fitted curve in the direction sought with a large enough effect; inconclusive means small, poorly fitted or top-dose-only effect, or another doubt; inactive means no such curve, though single readings can be large; an effect the other way counts as inactive or inconclusive.

Sequences of proteins named here, by UniProt entry; tags and fusion partners are left off. A change or cut given only in a name is not applied to a line headed by its entry.
UniProt P02791: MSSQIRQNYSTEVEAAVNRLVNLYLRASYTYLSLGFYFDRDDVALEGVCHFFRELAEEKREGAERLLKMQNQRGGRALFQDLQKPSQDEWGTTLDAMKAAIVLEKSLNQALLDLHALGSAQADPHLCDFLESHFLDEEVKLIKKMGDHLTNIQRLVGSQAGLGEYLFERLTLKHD
UniProt P46063: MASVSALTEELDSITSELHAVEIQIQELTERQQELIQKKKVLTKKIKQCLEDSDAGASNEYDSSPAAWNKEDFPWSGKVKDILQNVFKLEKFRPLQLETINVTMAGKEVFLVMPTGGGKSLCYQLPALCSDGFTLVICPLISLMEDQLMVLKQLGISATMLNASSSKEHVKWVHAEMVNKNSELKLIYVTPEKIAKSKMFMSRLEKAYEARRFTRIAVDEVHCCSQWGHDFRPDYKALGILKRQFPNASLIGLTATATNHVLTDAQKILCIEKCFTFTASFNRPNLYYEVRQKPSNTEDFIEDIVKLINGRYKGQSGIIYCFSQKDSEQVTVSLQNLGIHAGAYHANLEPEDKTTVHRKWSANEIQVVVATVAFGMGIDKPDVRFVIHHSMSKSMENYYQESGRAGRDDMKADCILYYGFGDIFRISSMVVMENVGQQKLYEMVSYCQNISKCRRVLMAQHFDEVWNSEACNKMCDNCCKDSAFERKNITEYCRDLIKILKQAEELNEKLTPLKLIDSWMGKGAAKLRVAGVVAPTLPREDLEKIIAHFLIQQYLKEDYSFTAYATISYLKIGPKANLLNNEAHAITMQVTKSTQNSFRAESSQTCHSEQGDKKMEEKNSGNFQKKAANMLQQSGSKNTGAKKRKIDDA
UniProt O75604: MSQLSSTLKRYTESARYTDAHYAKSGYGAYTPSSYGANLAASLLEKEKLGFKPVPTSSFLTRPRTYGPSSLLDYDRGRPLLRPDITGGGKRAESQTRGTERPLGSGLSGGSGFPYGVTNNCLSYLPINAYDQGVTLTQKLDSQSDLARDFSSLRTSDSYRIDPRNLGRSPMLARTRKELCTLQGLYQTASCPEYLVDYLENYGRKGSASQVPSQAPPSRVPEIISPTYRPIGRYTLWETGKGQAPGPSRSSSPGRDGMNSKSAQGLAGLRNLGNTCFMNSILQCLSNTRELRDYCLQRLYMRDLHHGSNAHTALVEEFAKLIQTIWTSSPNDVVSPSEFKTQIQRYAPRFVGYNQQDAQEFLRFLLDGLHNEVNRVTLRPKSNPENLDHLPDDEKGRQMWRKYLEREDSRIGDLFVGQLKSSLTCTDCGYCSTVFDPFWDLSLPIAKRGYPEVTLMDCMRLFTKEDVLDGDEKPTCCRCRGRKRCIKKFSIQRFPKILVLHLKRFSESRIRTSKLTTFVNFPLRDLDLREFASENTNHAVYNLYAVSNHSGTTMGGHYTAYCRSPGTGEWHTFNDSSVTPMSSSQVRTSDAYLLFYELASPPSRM
UniProt P39748, whole entry, looked up: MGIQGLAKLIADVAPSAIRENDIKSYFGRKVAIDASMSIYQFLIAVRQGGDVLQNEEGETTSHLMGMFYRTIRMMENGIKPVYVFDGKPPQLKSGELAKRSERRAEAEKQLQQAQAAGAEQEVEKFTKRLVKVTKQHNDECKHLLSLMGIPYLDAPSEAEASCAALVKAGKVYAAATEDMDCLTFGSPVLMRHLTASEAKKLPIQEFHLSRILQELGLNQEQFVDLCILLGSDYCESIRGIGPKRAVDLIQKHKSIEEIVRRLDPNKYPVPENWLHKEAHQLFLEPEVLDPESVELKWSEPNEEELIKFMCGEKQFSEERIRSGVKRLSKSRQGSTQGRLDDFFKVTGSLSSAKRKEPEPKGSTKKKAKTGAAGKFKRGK
UniProt P83916, whole entry, looked up: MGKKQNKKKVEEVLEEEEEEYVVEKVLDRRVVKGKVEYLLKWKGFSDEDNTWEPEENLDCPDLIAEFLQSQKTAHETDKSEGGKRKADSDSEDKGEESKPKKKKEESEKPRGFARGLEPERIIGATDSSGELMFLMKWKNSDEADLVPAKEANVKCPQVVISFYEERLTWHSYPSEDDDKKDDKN
UniProt Q6LX38: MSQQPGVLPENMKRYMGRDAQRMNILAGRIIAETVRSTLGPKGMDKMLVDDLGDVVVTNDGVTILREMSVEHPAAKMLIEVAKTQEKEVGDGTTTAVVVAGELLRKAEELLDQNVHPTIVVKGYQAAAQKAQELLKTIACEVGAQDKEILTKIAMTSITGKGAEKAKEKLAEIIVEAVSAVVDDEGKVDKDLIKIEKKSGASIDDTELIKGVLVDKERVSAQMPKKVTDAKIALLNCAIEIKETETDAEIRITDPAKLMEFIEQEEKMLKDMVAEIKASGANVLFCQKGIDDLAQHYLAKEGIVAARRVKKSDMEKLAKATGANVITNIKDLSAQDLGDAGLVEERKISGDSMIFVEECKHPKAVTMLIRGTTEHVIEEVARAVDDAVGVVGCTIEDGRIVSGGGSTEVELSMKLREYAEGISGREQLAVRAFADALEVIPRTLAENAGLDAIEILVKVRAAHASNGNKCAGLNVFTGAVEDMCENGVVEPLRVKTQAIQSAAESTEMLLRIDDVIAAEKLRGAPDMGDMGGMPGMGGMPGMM
UniProt P21728, whole entry, looked up: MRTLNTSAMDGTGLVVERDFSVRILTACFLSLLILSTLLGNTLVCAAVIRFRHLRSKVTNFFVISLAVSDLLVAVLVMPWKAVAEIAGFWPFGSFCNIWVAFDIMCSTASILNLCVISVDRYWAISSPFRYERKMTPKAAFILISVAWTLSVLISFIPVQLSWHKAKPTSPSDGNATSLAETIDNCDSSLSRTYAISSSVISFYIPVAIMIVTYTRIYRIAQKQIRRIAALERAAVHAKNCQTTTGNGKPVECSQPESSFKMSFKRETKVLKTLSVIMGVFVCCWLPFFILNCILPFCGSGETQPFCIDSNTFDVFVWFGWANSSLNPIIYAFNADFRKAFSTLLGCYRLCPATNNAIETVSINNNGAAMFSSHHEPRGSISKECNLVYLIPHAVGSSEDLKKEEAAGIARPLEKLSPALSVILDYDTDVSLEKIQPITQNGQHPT
UniProt Q96QE3: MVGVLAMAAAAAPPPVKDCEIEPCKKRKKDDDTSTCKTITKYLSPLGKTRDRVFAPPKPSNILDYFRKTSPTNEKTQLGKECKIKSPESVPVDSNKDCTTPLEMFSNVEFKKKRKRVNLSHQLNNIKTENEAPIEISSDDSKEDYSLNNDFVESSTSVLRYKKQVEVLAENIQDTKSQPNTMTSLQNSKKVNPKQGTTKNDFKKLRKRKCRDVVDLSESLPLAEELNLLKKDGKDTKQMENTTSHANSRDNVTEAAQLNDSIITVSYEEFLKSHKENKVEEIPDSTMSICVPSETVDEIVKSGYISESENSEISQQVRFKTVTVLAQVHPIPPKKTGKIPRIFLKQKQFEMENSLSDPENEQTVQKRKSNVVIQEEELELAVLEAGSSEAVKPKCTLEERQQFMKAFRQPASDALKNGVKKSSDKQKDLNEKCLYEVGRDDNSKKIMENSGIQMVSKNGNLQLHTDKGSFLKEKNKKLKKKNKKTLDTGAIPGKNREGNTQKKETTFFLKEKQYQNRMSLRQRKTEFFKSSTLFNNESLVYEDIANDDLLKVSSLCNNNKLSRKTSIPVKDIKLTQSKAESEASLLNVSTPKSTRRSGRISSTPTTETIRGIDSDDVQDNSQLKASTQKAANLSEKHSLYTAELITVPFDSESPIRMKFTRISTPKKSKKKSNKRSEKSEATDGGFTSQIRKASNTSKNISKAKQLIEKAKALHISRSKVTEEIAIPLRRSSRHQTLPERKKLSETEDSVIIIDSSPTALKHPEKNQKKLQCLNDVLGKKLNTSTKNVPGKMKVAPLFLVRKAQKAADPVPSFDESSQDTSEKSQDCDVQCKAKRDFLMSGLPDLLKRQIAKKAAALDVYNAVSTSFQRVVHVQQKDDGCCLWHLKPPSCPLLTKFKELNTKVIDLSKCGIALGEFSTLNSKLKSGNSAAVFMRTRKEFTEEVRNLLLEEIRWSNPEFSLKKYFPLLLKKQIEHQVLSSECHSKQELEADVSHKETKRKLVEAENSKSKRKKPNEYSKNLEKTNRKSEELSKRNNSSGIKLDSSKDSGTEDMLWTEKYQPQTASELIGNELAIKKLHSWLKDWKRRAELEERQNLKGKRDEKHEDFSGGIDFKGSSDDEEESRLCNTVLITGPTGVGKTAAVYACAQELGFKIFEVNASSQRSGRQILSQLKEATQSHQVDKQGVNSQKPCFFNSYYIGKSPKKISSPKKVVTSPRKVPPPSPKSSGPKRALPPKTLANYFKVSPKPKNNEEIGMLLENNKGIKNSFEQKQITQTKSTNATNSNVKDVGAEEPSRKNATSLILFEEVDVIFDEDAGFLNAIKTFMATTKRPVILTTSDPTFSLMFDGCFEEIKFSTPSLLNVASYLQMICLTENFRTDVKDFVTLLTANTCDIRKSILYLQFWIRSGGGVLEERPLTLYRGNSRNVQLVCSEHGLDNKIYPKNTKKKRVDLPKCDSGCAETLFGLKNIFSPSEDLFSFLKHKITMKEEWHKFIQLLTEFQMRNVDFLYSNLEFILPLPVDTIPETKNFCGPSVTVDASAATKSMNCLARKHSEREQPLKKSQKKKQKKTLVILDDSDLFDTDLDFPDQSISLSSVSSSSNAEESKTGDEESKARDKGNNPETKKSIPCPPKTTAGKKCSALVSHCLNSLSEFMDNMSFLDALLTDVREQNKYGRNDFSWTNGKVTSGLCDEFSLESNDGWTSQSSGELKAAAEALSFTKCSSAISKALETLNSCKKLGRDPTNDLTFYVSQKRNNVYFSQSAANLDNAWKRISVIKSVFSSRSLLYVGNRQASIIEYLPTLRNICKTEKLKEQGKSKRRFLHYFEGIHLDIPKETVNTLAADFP
UniProt P34981: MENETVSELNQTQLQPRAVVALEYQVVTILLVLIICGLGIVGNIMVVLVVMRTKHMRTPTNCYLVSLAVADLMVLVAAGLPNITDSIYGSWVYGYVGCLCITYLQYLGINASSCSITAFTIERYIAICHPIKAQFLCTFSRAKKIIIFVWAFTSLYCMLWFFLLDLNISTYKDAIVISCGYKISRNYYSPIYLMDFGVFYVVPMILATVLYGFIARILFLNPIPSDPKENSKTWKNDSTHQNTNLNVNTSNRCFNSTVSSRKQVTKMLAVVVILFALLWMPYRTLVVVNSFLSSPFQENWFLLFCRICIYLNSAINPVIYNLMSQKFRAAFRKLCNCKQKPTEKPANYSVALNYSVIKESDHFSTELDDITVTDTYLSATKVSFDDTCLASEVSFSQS
UniProt Q13526, whole entry, looked up: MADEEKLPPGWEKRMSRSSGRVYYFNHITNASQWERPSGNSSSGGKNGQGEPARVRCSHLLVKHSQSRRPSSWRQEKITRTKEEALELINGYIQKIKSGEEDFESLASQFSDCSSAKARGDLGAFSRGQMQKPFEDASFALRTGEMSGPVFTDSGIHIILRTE
UniProt O94782: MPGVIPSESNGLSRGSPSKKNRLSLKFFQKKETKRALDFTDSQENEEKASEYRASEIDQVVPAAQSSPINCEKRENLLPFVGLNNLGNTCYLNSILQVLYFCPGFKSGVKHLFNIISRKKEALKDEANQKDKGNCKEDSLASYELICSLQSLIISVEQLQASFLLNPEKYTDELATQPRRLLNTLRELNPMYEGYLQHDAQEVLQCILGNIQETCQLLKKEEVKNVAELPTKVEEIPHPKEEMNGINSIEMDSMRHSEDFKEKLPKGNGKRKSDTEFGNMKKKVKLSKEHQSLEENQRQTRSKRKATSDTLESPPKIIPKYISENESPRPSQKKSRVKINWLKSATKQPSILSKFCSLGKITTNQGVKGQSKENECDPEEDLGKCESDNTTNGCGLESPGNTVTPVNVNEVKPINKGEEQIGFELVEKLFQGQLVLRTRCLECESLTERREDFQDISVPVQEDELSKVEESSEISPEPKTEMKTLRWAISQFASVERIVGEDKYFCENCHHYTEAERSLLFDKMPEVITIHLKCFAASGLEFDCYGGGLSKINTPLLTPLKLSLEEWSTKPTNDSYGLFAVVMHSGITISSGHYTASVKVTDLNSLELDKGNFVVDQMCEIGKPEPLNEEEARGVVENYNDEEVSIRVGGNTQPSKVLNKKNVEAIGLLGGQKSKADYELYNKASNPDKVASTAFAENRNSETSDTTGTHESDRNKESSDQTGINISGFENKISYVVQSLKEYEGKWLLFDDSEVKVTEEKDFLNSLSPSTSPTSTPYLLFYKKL

How the values were obtained:
[1] = Validation of Assay for Modulators of Lamin A Splicing (AID 1459; active means well fitted curve in the direction sought with a large enough effect in the signal ratio; the % refers to the signal ratio;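 further: cells exposed to compound for two days before reading; 0% is about no effect; ratio rise marks activators and ratio drop marks inhibitors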); conditions: Lamin A splicing dual RFP/GFP fluorescence reporter; at 9.22 µM (top of the series)
Summary of the method: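 Splicing correction read as GFP (500-530 nm) over DsRed2 (575-640 nm) object intensity after 48 h compound exposure of reporter HeLa S3 clones (600 cells/well, 2% FBS medium); ancitabine and cycloheximide titrations, 0.5% DMSO as vehicle.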

[2] = Counterscreen for APE1 Inhibitors: Fluorescent Dye Displacement Validation Assay (AID 1707); conditions: fluorescent dye displacement from DNA; at 57.1 µM (top of the series);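 further: plate controls were ThO with dsDNA and no compound for no effect and ThO without dsDNA for full effect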
Summary of the method: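 Loss of Thiazole Orange fluorescence marks promiscuous DNA binders. The dye (250 nM) is mixed with 50 nM abasic-site dsDNA in pH7.5 Tris buffer containing MgCl2, then compounds are added and emission is read once.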

[3] = molecular target: Ferritin light chain (Equus caballus) (UniProt P02791); assay: qHTS Validation Assay for Identification of Novel General Anesthetics (AID 2323); conditions: horse apoferritin, anesthetic-site fluorescent probe displacement; at 76.9 µM (top of the series); further: on the % scale 0 is the no-effect control and ±100 the full control effect
Summary of the method: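 Competitive displacement of the profluorescent anesthetic 1-AMA (50% saturated, PBS) from 10 uM apoferritin, 10 min, room temperature. Activity is normalized 380/535 nm fluorescence; concentration-response fitted with a four-parameter Hill equation.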

[4] = molecular target: ATP-dependent DNA helicase Q1 (Homo sapiens) (UniProt P46063); assay: qHTS Validation Assay for Inhibitors of RecQ-Like Dna Helicase 1 (RECQ1) (AID 2353); conditions: recombinant RECQ1 helicase DNA unwinding assay; at 25.6 µM (top of the series);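 further: plate controls were DMSO vehicle for no effect and enzyme-free control for full effect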
Summary of the method: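 RECQ1T1 50 nM; forked duplex (20 bp + 30-nt ss tails) 200 nM, ATP 2 mM final; pH 8.0, 2 mM MgCl2, 2.5 ug/ml poly(dI-dC); 15 min compound preincubation; discontinuous kinetic read over 2 h at RT.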

[5] = Cytometric Cell-Based qHTS for Inhibitors of the mTORC1 Signaling Pathway in MEF (Tsc2-/-, p53-/-) Cells (AID 2660); conditions: mTORC1 pathway cytometry; at 38.3 µM (top of the series);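 further: Tsc2 and p53 null MEFs carrying empty vector with compound for 24 h; percent of cells above a phospho-rpS6 to PI ratio cutoff in each well; plate controls were DMSO for no effect and rapamycin for full effect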
Summary of the method: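 Percent of cells positive for normalized phospho-S6 staining is reported, with the cutoff set from rapamycin (7.5 nM) versus DMSO wells. Tsc2-/-, p53-/- MEFs received compound for 24 hrs.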

[6] = High Content Imaging Cell-Based qHTS for Inhibitors of the mTORC1 Signaling Pathway in MEF (Tsc2-/-, p53-/-) Cells (AID 2666); conditions: at 38.3 µM (top of the series);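 further: percent of cells scored positive for phospho-rpS6 Ser235/236 immunostaining by imaging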
Summary of the method: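 Tsc2-/-, p53-/- MEFs (empty-vector stable) grown in DMEM + 10% FBS were exposed to compounds for 24 hrs at 37 degree Celsius, fixed, and stained with Alexa-488 anti-phospho-rpS6 Ser235/236 plus Hoechst. Imaging gave the percentage of positive cells per well.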

[7] = High Content Imaging Cell-Based qHTS for Inhibitors of the mTORC1 Signaling Pathway in MEF Cells (AID 2667); conditions: at 38.3 µM (top of the series);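 further: Tsc2-/- p53-/- MEFs stably re-expressing wild-type Tsc2 exposed 24 h; plate controls were DMSO wells for no effect and rapamycin control wells for full effect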
Summary of the method: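 Tsc2-/-, p53-/- MEFs stably re-expressing WT Tsc2, grown in DMEM + 10% FBS, were treated with compounds for 24 hrs at 37 degree Celsius, fixed, and stained with Alexa-488 phospho-rpS6 Ser235/236 antibody plus Hoechst; results given as % positive cells.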

[8] = Cytometry Cell-Based qHTS for Inhibitors of the mTORC1 Signaling Pathway in MEF cells (AID 2668); conditions: mTORC1 pathway readout; at 38.3 µM (top of the series);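 further: Tsc2-/- p53-/- mouse embryonic fibroblasts stably re-expressing wild-type Tsc2; percent cells positive for phospho-rpS6 Ser235/236 relative to propidium iodide stain; plate controls were DMSO wells for no effect and 7.5 nM rapamycin control wells for full effect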
Summary of the method: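 Phospho-rpS6 (Ser235/236) immunofluorescence over PI signal, scored as % positive cells using thresholds from 7.5 nM rapamycin and DMSO wells, after 24 h compound exposure of WT-Tsc2-rescued Tsc2-/-, p53-/- MEFs. PI cell count recorded for viability.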

[9] = Validation screen for small molecules that induce DNA re-replication in MCF 10A normal breast cells (AID 463097); conditions: MCF 10A cells, DNA re-replication phenotype imaging; at 46.1 µM (top of the series); further: 0% is about no effect; nearly all actives have a fitted effect of over 60% in size
Summary of the method: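 Read-out is Hoechst total nuclear intensity by fluorescence scanning imager, flagging increased high-DNA-content nuclei. Compounds were incubated with MCF 10A cells for 48 hr (37 C, 5% CO2) before 40 min staining.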

[10] = molecular target: Ubiquitin carboxyl-terminal hydrolase 2 (Homo sapiens) (UniProt O75604); assay: qHTS Validation Assay for Inhibitors of Ubiquitin-specific Protease USP2a Using CHOP2 as the Reporter (AID 463106); conditions: USP2a cleavage of CHOP2 reporter, enzymatic; at 38.3 µM (top of the series);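 further: plate controls were DMSO for no effect and full inhibition by NEM for full effect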
Summary of the method: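 Readout was coupled fluorescence (Ex 485/Em 531 nm), read 60 min after adding 25 nM final Ub-CHOP2 and 25 nM reporter substrate. Beforehand, 10 nM final USP2 core had 30 min at RT with compound in pH 8.0 buffer. Curves were fitted after normalization to NEM and flagged for artifacts using time-zero reads.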

[11] = qHTS Validation Assay to Find Inhibitors of Chronic Active B-Cell Receptor Signaling (AID 485345; active means well fitted curve in the direction sought with a large enough effect in the main read-out, with a control signal flat, not every such curve was filed as active;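 further: 0% = untreated basal cells and 100% = 10 µM MG-132 proteasome inhibitor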); conditions: ABC-DLBCL cells, chronic BCR signaling reporter, CBG luciferase; at 46.1 µM (top of the series)
Summary of the method: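 Read-out: ratio of filter-corrected green (IkappaBalpha fusion) to red (native) luciferase signal in doxycycline-induced TMD8 cells after 4 h at 37C. Titration spanned 46 uM–3 nM; Data were normalised to basal cells and 10 uM MG-132 wells.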

[12] = molecular target: Beta-2 adrenergic receptor (Homo sapiens) (UniProt P07550); assay: qHTS validation assay of beta-arrestin-biased ligands of beta2-adrenergic receptor (AID 485366); conditions: cell-based beta-arrestin recruitment to ADRB2, qHTS; at 46.1 µM (top of the series); further: 0% is about no effect
Summary of the method: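 Screening used a titration range of up to 46 microM in a beta-arrestin recruitment Tango luciferase assay. Cells in 1% FBS medium were treated 18 hr at 37 degrees C, and luminescence was normalized to %Activity.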

[13] = molecular target: Thioredoxin reductase 1, cytoplasmic (Rattus norvegicus) (UniProt O89049); assay: qHTS Assay for Substrates of Mammalian Selenoprotein Thioredoxin Reductase 1 (TrxR1) (AID 488772); conditions: purified TrxR1, NADPH consumption substrate assay; at 57.1 µM (top of the series);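 further: 0% is about no effect; a drop in NADPH fluorescence below the no-compound background marks a TrxR1 substrate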
Summary of the method: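 In this dual-purpose format, potential substrates are identified from the first fluorescence read after selenite addition, not from the 8-minute delta. Rat enzyme is preincubated with NADPH and then with compound at ~22 deg C.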

[14] = molecular target: Thioredoxin reductase 1, cytoplasmic (Rattus norvegicus) (UniProt O89049); assay: qHTS Assay for Inhibitors of Mammalian Selenoprotein Thioredoxin Reductase 1 (TrxR1) (AID 488773); conditions: purified TrxR1 enzyme activity; at 57.1 µM (top of the series);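 further: drop in NADPH fluorescence over an 8 min run after selenite addition; on the % scale 0 is the no-effect control and ±100 the full control effect; nearly all actives have a fitted effect of over 40% in size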
Summary of the method: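 Inhibition is scored from the loss of NADPH fluorescence between first and last reads of an 8-min kinetic run. Selenite (400 uM) was the substrate, added after 15 min compound preincubation at room temperature.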

[15] = molecular target: Flap endonuclease 1 (Homo sapiens) (UniProt P39748); assay: qHTS Validation Assay for the Inhibitors of Human Flap endonuclease 1 (FEN1) (AID 488816); conditions: FEN1 nuclease activity, fluorogenic DNA substrate; at 57.1 µM (top of the series); further: on the % scale 0 is the no-effect control and ±100 the full control effect
Summary of the method: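 qHTS format: compounds and 10 nM FEN1 incubated 15 min at room temperature before adding 50 nM substrate. Cleavage followed by reads at 0 and 15 min; normalized data fitted to a four-parameter Hill curve.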

[16] = molecular target: Chromobox protein homolog 1 (Homo sapiens) (UniProt P83916); assay: qHTS Validation Assay for Inhibitors of HP1-beta Chromodomain Interactions with Methylated Histone Tails (AID 488953); conditions: HP1-beta chromodomain / methylated histone peptide binding assay; at 114 µM (top of the series);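 further: loss of AlphaScreen luminescence from HP1-beta binding biotinylated H3K9me3 peptide; on the % scale 0 is the no-effect control and ±100 the full control effect; nearly all actives have a fitted effect of over 50% in size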
[17] = molecular target: Methanococcus maripaludis chaperonin (MmCpn) (UniProt Q6LX38); assay: High-Throughput Screening for Modulators of Cytosolic Chaperonin Activity: MmCpn Primary Screen (AID 488978); conditions: MmCpn chaperonin refolding activity, biochemical qHTS; at 76.9 µM (top of the series);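 further: 50 nM MmCpn enzyme hydrolysing 30 µM ATP at 37 °C; 0% is about no effect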
Summary of the method: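 ATPase activity of 50 nM MmCpn was assayed with 30 uM ATP, 10 minutes at 37C, after a 5 min compound preincubation at room temperature. ADP production was read as HTRF emission at 590 and 665 nm.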

[18] = molecular target: D(1A) dopamine receptor (Homo sapiens) (UniProt P21728); assay: HTS Assay for Allosteric Agonists of the Human D1 Dopamine Receptor: Primary Screen for Agonists (AID 488981); conditions: D1 receptor-expressing cells, agonist cAMP readout; at 41.8 µM (top of the series); further: 0% is about no effect
Summary of the method: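 Calcium flux in an inducible, force-coupled HEK293 Trex D1 line (overnight at 30 C): agonist mode is the 180 s kinetic read after compound; potentiator mode is the following 180 s read after dopamine at EC20.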

[19] = molecular target: D(1A) dopamine receptor (Homo sapiens) (UniProt P21728); assay: HTS Assay for Allosteric Agonists of the Human D1 Dopamine Receptor: Primary Screen for Potentiators (AID 488982); conditions: D1 receptor cells, potentiator mode, cAMP signal; at 8.37 µM (top of the series); further: 0% is about no effect
[20] = molecular target: D(1A) dopamine receptor (Homo sapiens) (UniProt P21728); assay: HTS Assay for Allosteric Agonists of the Human D1 Dopamine Receptor: Primary Screen for Antagonists (AID 488983); conditions: D1 receptor cell assay, antagonist mode, qHTS titration; at 41.8 µM (top of the series);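 further: calcium flux response to an EC80 dopamine challenge measured with no-wash dye; on the % scale 0 is the no-effect control and ±100 the full control effect; nearly all actives have a fitted effect of over 65% in size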
[21] = Validation screen for small molecules that induce genotoxicity in human embryonic kidney (HEK293T) cells expressing luciferase-tagged ELG1 (AID 493106); conditions: luminescence; at 46.1 µM (top of the series); further: 0% is about no effect
Summary of the method: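 In this validation screen, increased ELG1-luciferase signal flags compounds causing genetic stress. HEK293T reporter cells are treated 16 hr (37 °C, 5% CO2), developed with ONE-Glo for 30 min at room temperature, and imaged on a CCD-based reader.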

[22] = molecular target: ATPase family AAA domain-containing protein 5 (Homo sapiens) (UniProt Q96QE3); assay: Validation screen for small molecules that inhibit ELG1-dependent DNA repair in human embryonic kidney (HEK293T) cells expressing luciferase-tagged ELG1 (AID 493107); conditions: HEK293T ELG1-luciferase level, luminescence, 5-fluorouridine co-treatment, 16 h; at 46.1 µM (top of the series);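 further: cells co-treated with the DNA-damaging agent 5-fluorouridine alongside compound; on the % scale 0 is the no-effect control and ±100 the full control effect; inhibitors lower the ELG1-luciferase luminescence signal; nearly all actives have a fitted effect of over 70% in size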
Summary of the method: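 Compounds reducing 5-fluorouridine-driven ELG1-luciferase signal in HEK293T cells were scored; exposure lasted 16 hr at 37 °C with luminescence detected via ONE-Glo.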

[23] = molecular target: Thyrotropin-releasing hormone receptor (Homo sapiens) (UniProt P34981); assay: qHTS for Small Molecule Agonists and Allosteric Enhancers of Human TRH Receptor: Validation Screen for Agonists (AID 493127;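 active means calcium activation more than 3 SD above the typical response in the agonist read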;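 further: intracellular calcium rise by fluo-8 fluorescence before TRH EC20 addition; 0% is about no effect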); conditions: TRH receptor agonist cell assay; at 2 µM; hits give high values
Summary of the method: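 Kinetic fluorescence assay of agonist-induced calcium release: overnight-plated TRHR cells, room-temperature fluo-8 loading, baseline then compound addition with per-second reads.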

[24] = Nrf2 qHTS screen for inhibitors: Validation (AID 493153; active means well fitted inhibition curve with a large enough effect in the main read-out, with a control signal flat, not every such curve was filed as active;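 further: A549 cells with ARE-driven firefly luciferase reporter reporting Nrf2 activity; % of control where 0% means no effect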); conditions: A549 ARE-Fluc reporter, luciferase luminescence, 18-24 h; at 46.1 µM (top of the series)
[25] = qHTS for Inhibitors of Cell Surface uPA Generation: Validation Assay (AID 493164); conditions: mouse cells, plasminogen activation; at 38.3 µM (top of the series);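 further: RAW 264.7 macrophage cells exposed to compound for 18 h; 0% is about no effect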
Summary of the method: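 Compounds are titrated over seven points (2.45 nM–38.3 uM final) onto pre-plated RAW 264.7 cells and incubated for 18 h. Retained intracellular ATP, measured with ATP-Lite, indicates blocked lethal factor entry.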

[26] = Validation screen for small molecules that induce DNA re-replication in SW480 colon adenocarcinoma cells (AID 504364); conditions: DNA re-replication phenotype (high-content imaging); at 46.1 µM (top of the series); further: 0% is about no effect
Summary of the method: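 Hoechst-stained SW480 nuclei, imaged at 405 nm excitation after 48 hr compound exposure, were counted for elevated DNA content as the re-replication signal.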

[27] = molecular target: Peptidyl-prolyl cis-trans isomerase NIMA-interacting 1 (Homo sapiens) (UniProt Q13526); assay: qHTS Validation Assay to Find Inhibitors of Pin1 (AID 504536; active means well fitted inhibition curve with a large enough effect in the polarisation, with a control signal flat, not every such curve was filed as active; the % refers to the polarisation;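 further: 0% = full Pin1 enzyme wells and -100% = no-enzyme wells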); conditions: Pin1 fluorescence polarization peptide binding assay; at 57.5 µM (top of the series)
Summary of the method: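 Fluorescence polarization competition: compounds (titration) displace HiFluor-488-labeled Pin1-1b peptide from Pin1 (0.3 uM final) in pH 7.5 HEPES buffer with DTT, 10 min at room temperature; %Activity normalized to no-enzyme wells, curves fitted.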

[28] = Inducers of the Endoplasmic Reticulum Stress Response (ERSR) in human glioma: Validation (AID 504836); conditions: human glioma cells, ER stress response reporter; at 38.3 µM (top of the series); further: 0% is about no effect
Summary of the method: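 ERSR induction read as luciferase luminescence (Bright-Glo, 10 min at room temperature) in stably transfected human U87-MG glioma cells exposed to compounds for 16 h, using GRP78 as sensor.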

[29] = molecular target: Ubiquitin carboxyl-terminal hydrolase 1 (Homo sapiens) (UniProt O94782); assay: Inhibitors of USP1/UAF1: Pilot qHTS (AID 504865); conditions: purified USP1/UAF1, Ub-rhodamine cleavage fluorescence; at 114 µM (top of the series);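 further: rhodamine fluorescence freed from ubiquitin-rhodamine substrate followed over time; top concentration of the series differs between compounds; on the % scale 0 is the no-effect control and ±100 the full control effect; nearly all actives have a fitted effect of over 35% in size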

CN(C(=O)Cc1ccc(Cl)c(Cl)c1)[C@@H]1CCCC[C@@H]1N1CCCC1
inactive: ratio change, both ways [1] -8.08% | activity change, negative = inhibition [2] 0.312% | activity change, negative = inhibition [3] -10.6% | activity change, negative = inhibition [4] -1.8% | activity change, negative = inhibition [5] 8.37% | outcome [6] | activity change, negative = inhibition [7] -100% | activity change, negative = inhibition [8] -9.51% | re-replication induction [9] 2.41% | activity, negative = inhibition [10] 0.766% | activity change [11] -25.4% | activation [12] -0.386% | activity change, negative = NADPH consumption [13] -6.49% | activity change, negative = inhibition [14] -7.91% | activity, negative = inhibition [15] -11.2% | activity change, negative = inhibition [16] -9.55% | activity change, negative = inhibition [17] -0.0649% | activation [18] 9.84% | activity, positive = potentiation [19] 5.1% | activity change, negative = inhibition [20] 7.41% | activity change, positive = ELG1 induction [21] -7.43% | activity change, negative = decrease [22] -0.181% | activation [23] 1.81% | activity change, negative = inhibition [24] -12.1% | activity change [25] -0.837% | activity (re-replication induction) [26] 13.6% | activity, negative = inhibition [27] 43.2% | activation [28] 0.0322% | activity change, negative = inhibition [29] 1.6%
